The series in a line: Solubility by ultracentrifugation (GLP-1 variants). Format: physicochemical. The procedure: Relative solubility was measured using a recently developed PEG precipitation assay. For all PYY variants the standard assay worked well, and no changes had to be implemented (Fig. 2a). […] Moreover, to ensure that the results stemming from the AMS assay are consistent and reliable, we performed the 18 A experiments twice independently on different days. The results confirmed that they are indeed replicable, and we were therefore confident to use them for the validation of our approach (Supplementary Fig. 3). […] Even at final concentrations of 0.33 mg/mL (instead of 1 mg/mL) most variants remained insoluble. We used ultracentrifugation to determine the relative solubilities of the GLP-1 variants (Table 3). To confirm the reliability of this method we replicated the results on a different day with the same stock solutions (Supplementary Fig. 4).
Aliquots of 1 mg were prepared from the purified and lyophilised stocks. […] Briefly, a precipitant is titrated in increasing concentration to a fixed concentration of protein to induce precipitation of the protein. The samples are incubated for 48 h at 4° after mixing. The samples are centrifuged and the remaining protein concentration is measured in the supernatant using a plate reader. PYY and 18 A variants were dissolved in 10 mM citrate 10 mM phosphate buffer at pH 7 for a final concentration of 3 mg/mL. The assay was run with 50% 6000 PEG for PYY and with 3.8 M AMS for 18 A. To improve throughput, a multichannel robot was employed to measure several peptides at once with the workflow being kept the same as described previously. […] 120 µL of each sample were centrifuged using an OptimaTLX Ultracentrifuge and spinning for 30 min at 500,000 g at 4 °C. The supernatant was removed, and the peptide concentration was measured using a NanoDrop.

Usually solubility stands for how much of the substance goes into solution per volume.

Consider `CC(C)C[C@H](NC(=O)[C@H](Cc1ccc(O)cc1)NC(=O)[C@H](CO)NC(=O)[C@H](CO)NC(=O)[C@@H](NC(=O)[C@H](CC(=O)O)NC(=O)[C@H](CO)NC(=O)[C@@H](NC(=O)[C@H](Cc1ccccc1)NC(=O)[C@@H](NC(=O)C(C)(C)NC(=O)[C@H](CCC(=O)O)NC(=O)[C@H](C)NC(=O)[C@@H](N)Cc1c[nH]cn1)[C@@H](C)O)[C@@H](C)O)C(C)C)C(=O)N[C@@H](CCC(=O)O)C(=O)NCC(=O)N[C@@H](CCC(N)=O)C(=O)N[C@@H](C)C(=O)N[C@@H](C)C(=O)N[C@@H](CCCCN)C(=O)N[C@@H](CCC(=O)O)C(=O)N[C@@H](Cc1ccccc1)C(=O)N[C@@H](CCCNC(N)=O)C(=O)N[C@@H](C)C(=O)N[C@@H](Cc1c[nH]c2ccccc12)C(=O)N[C@@H](CC(C)C)C(=O)N[C@H](C(=O)N[C@@H](CCCCN)C(=O)NCC(=O)N[C@@H](CCCNC(=N)N)C(N)=O)C(C)C` [Compound 8], for which the “First Run” value was found to be 2, the “Second Run” value is reported as 2 and the Ultracentrifugation was determined as 2. In addition, where the note is “pH 7, Run 1 solubility (peptide concentration in supernatant)”, the solubility was greater than 2000 µg/mL. Further, the solubility (pH 7, Run 2 solubility (peptide concentration in supernatant)) is greater than 2000 µg/mL.

(Values after article PMC10656490, “Sequence-based prediction of the intrinsic solubility of peptides containing non-natural amino acids” (Nature Communications, 2023).)
